Most compounds without a hit are left out; they make up all but 0.43% or so of the library.
HCMV UL50-53 inh: inhibitors of HCMV UL50-UL53 interaction, biochemical, HTRF; HCMV UL50-UL53 nuclear egress complex (human cytomegalovirus); normalized percent inhibition; inhibition, % (concentration not given with the values); 0.15% of 190,000 active; AID 1918969, 2023; in the data active = inhibition above about 27%, passing the limit was not always enough
GIV Gai3 FP: inhibitors of GIV peptide binding to Galpha-i3, primary screen, biochemical, fluorescence polarization, FITC-GIV GBA peptide, rat Galphai3. Guanine nucleotide-binding protein G(i) subunit alpha-3 (Rattus norvegicus), P08753. 90 min; stronger effect = lower value; scaled: aluminum fluoride 0%, vehicle 100%. percent of control (FP), % (test concentration not listed). hit rate 0.42% among 210,000. AID 1224905, 2016;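 active = replicate mean at 85% of control or lower, very high polarization wells dropped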;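 note: wells of about 15 µL received 100 nL stock; the first replicate is given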
Starred values were filed as active, the others as inactive.

Amino acid sequences for entries named in this document (tags omitted).
Guanine nucleotide-binding protein G(i) subunit alpha-3 (Rattus norvegicus), P08753, UniProt P08753, whole entry, looked up: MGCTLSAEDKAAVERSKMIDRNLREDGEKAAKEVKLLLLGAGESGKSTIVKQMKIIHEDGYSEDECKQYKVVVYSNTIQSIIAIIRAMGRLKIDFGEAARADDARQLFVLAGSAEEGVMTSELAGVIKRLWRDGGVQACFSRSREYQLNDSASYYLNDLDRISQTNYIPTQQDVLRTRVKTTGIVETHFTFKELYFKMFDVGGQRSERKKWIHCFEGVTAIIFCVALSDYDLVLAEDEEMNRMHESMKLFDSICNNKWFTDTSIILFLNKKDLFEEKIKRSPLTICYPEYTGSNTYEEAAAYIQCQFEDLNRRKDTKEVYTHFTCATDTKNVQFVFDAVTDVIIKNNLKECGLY

Screening CCC(=O)N1CCc2cc(Br)cc(S(=O)(=O)N3CCCC(C(=O)Nc4ccc(C)c(F)c4)C3)c21 (stereo not given) returned HCMV UL50-53 inh 3 and GIV Gai3 FP 105.
For N#Cc1c(=O)n(O)c2ccccc2[n+]1[O-] the results were HCMV UL50-53 inh -132 and GIV Gai3 FP -33*.
`O=c1c(-c2ccc(Oc3ccccc3)cc2)[n+]([O-])c2ccccc2n1O` gave HCMV UL50-53 inh -64 and GIV Gai3 FP 116.
`O=C(c1cc2c(=O)[nH]c3ccccc3c2s1)N1CCCC1` gave GIV Gai3 FP 58*.
`O=C(c1cc2c(=O)[nH]c3ccccc3c2s1)N1CCN(c2ccc(F)cc2)CC1` gave HCMV UL50-53 inh -23 and GIV Gai3 FP 100.
Screening Cc1n[nH]c(C)c1N1C(=O)c2cccc3c(N)ccc(c23)C1=O returned GIV Gai3 FP -42*.
For Cc1n[nH]c(C)c1N1C(=O)c2cccc3c(Br)ccc(c23)C1=O the results were HCMV UL50-53 inh -135 and GIV Gai3 FP 99.
`CN(C)c1ccc2c3c(cccc13)C(=O)N(c1ccccc1)C2=O` gave HCMV UL50-53 inh -23 and GIV Gai3 FP 101.
`O=C1c2cccc3c(N4CCNCC4)ccc(c23)C(=O)N1c1ccc(Cl)cc1` gave HCMV UL50-53 inh -73 and GIV Gai3 FP -91*.
`Nc1ccc2c3c(cccc13)C(=O)N(c1ccccc1)C2=O` gave HCMV UL50-53 inh -56 and GIV Gai3 FP -30*.
For Cc1cccc(N2C(=O)c3cccc4c(N5CCNCC5)ccc(c34)C2=O)c1 the results were HCMV UL50-53 inh -98 and GIV Gai3 FP 88.
CC(C)C[C@H]1C(=O)N2CCN(Cc3cnn(-c4ccccc4)c3)C[C@@H]2C(=O)N1C was read as HCMV UL50-53 inh -8.
For O=C1C2C(c3ccccc3)OC3(C(=O)c4ccccc4C3=O)C2C(=O)N1CCc1ccc(F)cc1 (stereo not given) the results were GIV Gai3 FP 111.
O=c1oc2cc(O)ccc2cc1-c1nc2ccccc2s1 was read as HCMV UL50-53 inh -60 and GIV Gai3 FP -79*.
For COc1cccc(Nc2nnc(-c3cc4ccc(O)cc4oc3=O)s2)c1 the results were GIV Gai3 FP -69*.
For O=c1oc2cc(O)ccc2cc1-c1nnc(Nc2ccccc2F)s1 the results were HCMV UL50-53 inh -39 and GIV Gai3 FP 231.
`O=C(Oc1ccc2cc(-c3nc4ccccc4s3)c(=O)oc2c1)c1ccco1` gave GIV Gai3 FP -42*.
For CCOc1ccc2cc(-c3nc4ccccc4s3)c(=O)oc2c1 the results were HCMV UL50-53 inh -16 and GIV Gai3 FP 107.
COc1ccc(Nc2nnc(-c3cc4c(ccc5ccccc54)oc3=O)s2)cc1 was read as HCMV UL50-53 inh -25 and GIV Gai3 FP 102.
Screening O=c1oc2cc(O)ccc2cc1-c1nnc(NCc2ccccc2)s1 returned GIV Gai3 FP -32*.
For O=C(Oc1ccc2cc(-c3ccc(F)cc3)c(=O)oc2c1)c1ccco1 the results were HCMV UL50-53 inh -16 and GIV Gai3 FP 108.
For Cc1ccc(CNCCO)o1 the results were HCMV UL50-53 inh -17 and GIV Gai3 FP 102.
Screening O=c1nc(SCc2ccc(Cl)cc2)c2c(n1Cc1ccccc1)CCC2 returned HCMV UL50-53 inh -17 and GIV Gai3 FP 103.
`COc1cccc(NS(=O)(=O)c2csc(C(N)=O)c2)c1` gave HCMV UL50-53 inh -38 and GIV Gai3 FP 99.
CCn1c(SCC(=O)Nc2ccccc2C(=O)NC2CC2)nc2cc(S(N)(=O)=O)ccc21 was read as HCMV UL50-53 inh -11.
CCOC(=O)c1cc(=O)n2[nH]c(-c3ccc(Br)cc3)cc2n1 was read as HCMV UL50-53 inh -16 and GIV Gai3 FP 104.
CCNC(=O)CC1Sc2ccccc2NC1=O (stereo not given) was read as HCMV UL50-53 inh -12 and GIV Gai3 FP 105.
CC(C)N1CCc2c(sc(NC(=O)C3CC3)c2-c2nc3ccccc3s2)C1 was read as GIV Gai3 FP -3.2*.
For CC(=O)N1CCc2c(sc(NC(=O)CSc3ccc(C)cc3)c2-c2nc3ccccc3s2)C1 the results were GIV Gai3 FP 100.
`CN1CCc2c(sc(NC(=O)C3CC3)c2-c2nc3ccccc3s2)C1` gave GIV Gai3 FP -3.2*.
Screening CN1CCc2c(sc(NC(=O)CN3C(=O)c4ccccc4C3=O)c2-c2nc3ccccc3s2)C1 returned GIV Gai3 FP 124.
For CCCOc1ccc(-c2cc(C(=O)NCCCN3CCOCC3)c3ccccc3n2)cc1 the results were HCMV UL50-53 inh -59 and GIV Gai3 FP 104.
`COc1cccc2c1NC(c1ccccc1Br)C1CC=CC21` (stereo not given) gave HCMV UL50-53 inh -5 and GIV Gai3 FP 105.
`CCOC(=O)N1CCN(c2cc(NCCC(=O)O)c3c4c(onc24)-c2ccccc2C3=O)CC1` gave GIV Gai3 FP -79*.

Arranged by length of the SMILES (smallest number first): four of the compounds above
`COc1cccc2c1NC(c1ccccc1Br)C1CC=CC21` (stereo not given) gave HCMV UL50-53 inh -5 and GIV Gai3 FP 105.
For CCCOc1ccc(-c2cc(C(=O)NCCCN3CCOCC3)c3ccccc3n2)cc1 the results were HCMV UL50-53 inh -59 and GIV Gai3 FP 104.
For CC(=O)N1CCc2c(sc(NC(=O)CSc3ccc(C)cc3)c2-c2nc3ccccc3s2)C1 the results were GIV Gai3 FP 100.
Screening CN1CCc2c(sc(NC(=O)CN3C(=O)c4ccccc4C3=O)c2-c2nc3ccccc3s2)C1 returned GIV Gai3 FP 124.
